Article PMC10882002, “Design of target specific peptide inhibitors using generative deep learning and molecular dynamics simulations” (Nature Communications, 2024)

Chains of the proteins cited; added tags and fusions are not shown.
UniProt P35222, whole entry: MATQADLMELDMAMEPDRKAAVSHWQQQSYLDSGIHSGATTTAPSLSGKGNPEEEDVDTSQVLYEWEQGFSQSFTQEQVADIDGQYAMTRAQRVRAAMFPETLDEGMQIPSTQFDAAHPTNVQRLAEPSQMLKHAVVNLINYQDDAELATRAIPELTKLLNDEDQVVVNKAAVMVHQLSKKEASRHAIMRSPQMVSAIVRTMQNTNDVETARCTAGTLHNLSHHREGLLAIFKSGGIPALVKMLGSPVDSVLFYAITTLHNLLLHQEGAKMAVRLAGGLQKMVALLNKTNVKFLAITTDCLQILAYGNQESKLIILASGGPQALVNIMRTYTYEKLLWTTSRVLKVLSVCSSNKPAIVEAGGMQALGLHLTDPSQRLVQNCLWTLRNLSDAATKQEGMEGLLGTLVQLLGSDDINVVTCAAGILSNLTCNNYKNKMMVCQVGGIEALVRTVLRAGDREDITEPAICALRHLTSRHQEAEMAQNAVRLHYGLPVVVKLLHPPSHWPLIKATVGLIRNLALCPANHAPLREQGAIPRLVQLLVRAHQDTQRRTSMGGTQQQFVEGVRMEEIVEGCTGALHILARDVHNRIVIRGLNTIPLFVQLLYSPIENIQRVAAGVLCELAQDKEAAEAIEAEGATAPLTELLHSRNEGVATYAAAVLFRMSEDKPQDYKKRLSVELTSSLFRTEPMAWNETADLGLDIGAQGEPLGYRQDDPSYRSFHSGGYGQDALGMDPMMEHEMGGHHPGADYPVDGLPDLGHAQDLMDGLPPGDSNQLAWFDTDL

Target: GST-β-catenin (Homo sapiens, UniProt P35222)
Test: Competitive fluorescence polarization (FP)-based binding assay against β-catenin
Parameters: Expression and purification of GST-β-catenin has been reported previously; made in house

First: CC[C@H](C)[C@@H]1NC(=O)[C@@H](NC(=O)[C@H](CCC(=O)O)NC(=O)[C@@H]2CCCN2C(=O)[C@H](Cc2ccc(O)cc2)NC(C)=O)CC(=O)NCCCC[C@@H](C(=O)N[C@@H](Cc2c[nH]cn2)C(=O)N[C@@H](CC(C)C)C(=O)N[C@@H](CCC(N)=O)C(=O)N[C@@H](CCCNC(=N)N)C(=O)N[C@H](C(=O)N[C@@H](Cc2c[nH]c3ccccc23)C(=O)N[C@@H](Cc2c[nH]c3ccccc23)C(=O)N[C@@H](Cc2ccccc2)C(=O)N[C@H](C(=O)N[C@@H](CC(=O)O)C(=O)N[C@@H](CC(=O)O)C(=O)N[C@@H](Cc2c[nH]cn2)C(=O)N[C@@H](Cc2c[nH]c3ccccc23)C(N)=O)[C@@H](C)O)C(C)C)NC(=O)[C@H](CC(=O)O)NC(=O)[C@H](CC(C)C)NC1=O [CAL-2]
Second: CC[C@H](C)[C@H](NC(=O)[C@H](CO)NC(=O)[C@H](Cc1ccccc1)NC(=O)[C@H](Cc1ccc(O)cc1)NC(=O)[C@H](Cc1ccc(O)cc1)NC(=O)[C@H](CC(C)C)NC(=O)[C@@H](NC(=O)[C@@H](NC(=O)[C@H](CCCNC(=N)N)NC(=O)[C@H](CCC(N)=O)NC(=O)[C@H](CC(C)C)NC(=O)[C@H](Cc1c[nH]cn1)NC(=O)[C@@H]1CCCCNC(=O)C[C@H](NC(=O)[C@H](CCC(=O)O)NC(=O)[C@@H]2CCCN2C(=O)[C@H](Cc2ccc(O)cc2)NC(C)=O)C(=O)N[C@@H]([C@@H](C)CC)C(=O)N[C@@H](CC(C)C)C(=O)N[C@@H](CC(=O)O)C(=O)N1)C(C)C)[C@@H](C)CC)C(=O)N[C@@H](CCC(=O)O)C(N)=O [CAL-9]
The IC50 of the first is 30-fold lower: 10 ± 6 nM for the first, 300 ± 37 nM for the second.

`CC[C@H](C)[C@@H]1NC(=O)[C@@H](NC(=O)[C@H](CCC(=O)O)NC(=O)[C@@H]2CCCN2C(=O)[C@H](Cc2ccc(O)cc2)NC(C)=O)CC(=O)NCCCC[C@@H](C(=O)N[C@@H](Cc2c[nH]cn2)C(=O)N[C@@H](CC(C)C)C(=O)N[C@@H](CCC(N)=O)C(=O)N[C@@H](CCCNC(=N)N)C(=O)N[C@H](C(=O)N[C@H](C(=O)N[C@@H](CC(C)C)C(=O)N[C@@H](Cc2ccccc2)C(=O)N[C@@H](Cc2ccccc2)C(=O)N[C@@H](CS)C(N)=O)[C@@H](C)CC)C(C)C)NC(=O)[C@H](CC(=O)O)NC(=O)[C@H](CC(C)C)NC1=O` [CAL-10] was tested, and the IC50 was 200 ± 64 nM.
